Properties, as collected for the OPERA models

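The numbers are reported measurements, compiled and curated for the OPERA QSAR suite. One number stands for a compound and property, with no spread given. Method, purity and exact conditions of the single measurements are not given. Where a salt, mixture or single isomer is drawn, the source does not say that exactly this form was tested. Some upstream entries may be estimates or bounds without being marked so.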

Melting points are in °C.
Boiling points are in °C, nominally at 760 mmHg.
logP is the log10 of the octanol-water partition coefficient; higher is more lipophilic.
Solubility in water is on a log10 molar scale (set defined at 25 °C).
Vapor pressures (log10 mmHg) refer to near room temperature, 15 to 30 °C; higher is more volatile.
The unbound fraction in human plasma runs from 0 (all bound) to 1 (all free).
Clint is human hepatic intrinsic clearance in µL/min per million cells; 0 means that no clearance was seen.
Cells with "n/a" have no entry in this list.

SMILES,MP (°C),bp (°C),logP,log solubility (log10 mol/L),log VP (log10 mmHg),plasma fu,intrinsic clearance (µL/min/10^6 cells)
COC(=O)[C@H]1[C@H]2C[C@@H]3c4[nH]c5cc(OC)ccc5c4CCN3C[C@H]2C[C@@H](OC(=O)c2cc(OC)c(OC)c(OC)c2)[C@@H]1OC,n/a,n/a,3.2,n/a,n/a,0.005994,12.25
CC(C)(C)Cl,n/a,n/a,2.38,-1.507,2.482,n/a,n/a
CC1=C(C#N)C(C)(C)CCC1,0.8,229,2.7,n/a,-1.286,n/a,n/a
CCCCC(CC)COC(=O)CCc1cc(C(C)(C)C)c(O)c(C(C)(C)C)c1 (stereo not given),-44.2,n/a,7.5,-7.115,-6.397,n/a,n/a
CC[C@@H]([C@H](C)O)n1ncn(-c2ccc(N3CCN(c4ccc(OC[C@@H]5CO[C@@](Cn6cncn6)(c6ccc(F)cc6F)C5)cc4)CC3)cc2)c1=O,n/a,n/a,5.5,n/a,n/a,0.02,n/a
CC(C)(C)c1n[nH]c(=O)[nH]c1=O,n/a,n/a,n/a,-1.5,-7.775,n/a,n/a
CO[Si](CCCCCC[Si](OC)(OC)OC)(OC)OC,n/a,n/a,n/a,-2.793,-3.216,n/a,n/a
CC(C)[C@@H]1CC[C@@H](C)C[C@H]1OC(=O)[C@@H]1O[C@@H](O)CS1,95.6,n/a,3.18,n/a,n/a,n/a,n/a
COc1ccc(-c2ccc3cc(C(=O)O)ccc3c2)cc1C12CC3CC(CC(C3)C1)C2,n/a,n/a,8.6,-8.012,n/a,n/a,n/a
C=COCCOCCOCCOC=C,-12.6,252,1.81,n/a,-2.502,n/a,n/a
N#CCC(=O)Nc1cccc(Cl)c1,140,n/a,n/a,-2.626,n/a,n/a,n/a
O=C(c1ccccc1)C1(O)CCCCC1,n/a,n/a,2.81,-2.665,-3.824,n/a,n/a
CCC(C)OC(=O)N1CCCCC1CCO (stereo not given),n/a,n/a,2.11,n/a,-3.354,n/a,12.56
O=C(O)COc1ccc2sc3ccccc3c(=O)c2c1,217.5,n/a,n/a,-4.187,-9.698,n/a,n/a
CCC(C)=CCCC(C)=O,n/a,n/a,3.3,-2.193,n/a,n/a,n/a
F/C(=C\Cl)C(F)F,-82.3,54.25,1.9,n/a,2.331,n/a,n/a
CC(CCc1ccc(O)cc1)NCCc1ccc(O)c(O)c1 (racemic),n/a,n/a,3.6,-4.342,n/a,n/a,n/a
CCN1CCOCC1.Cc1ccc(C(=O)CCC(=O)O)cc1.Cc1ccc(C(=O)CCC(=O)O)cc1,n/a,n/a,0.116,n/a,-6.409,n/a,n/a
CCON,-38.2,68,-0.7,n/a,1.943,n/a,n/a
C=CCN(CC=C)c1cc(NC(C)=O)c(N=Nc2c(Br)cc([N+](=O)[O-])cc2[N+](=O)[O-])cc1OC,176.5,n/a,6.9,n/a,n/a,n/a,n/a
CC(CC=O)c1ccccc1 (stereo not given),n/a,n/a,1.9,-1.87,-0.634,n/a,n/a
SC1CCCCC1,-118.2,n/a,n/a,-3.367,n/a,n/a,n/a
Oc1cc(Cl)cc(Br)c1,n/a,n/a,3.2,n/a,-4.425,n/a,n/a
CC(C)=CCCC(C)CCOC(=O)C(C)C (stereo not given),-14.3,n/a,5.415,n/a,n/a,n/a,n/a
CCCCCCCCC=CCCCCCCCC(=O)OCCC,n/a,n/a,n/a,-8.059,-3.803,n/a,n/a

Excerpt, the opening 3 entries:

SMILES,MP (°C),bp (°C),logP,log solubility (log10 mol/L),log VP (log10 mmHg),plasma fu,intrinsic clearance (µL/min/10^6 cells)
COC(=O)[C@H]1[C@H]2C[C@@H]3c4[nH]c5cc(OC)ccc5c4CCN3C[C@H]2C[C@@H](OC(=O)c2cc(OC)c(OC)c(OC)c2)[C@@H]1OC,n/a,n/a,3.2,n/a,n/a,0.005994,12.25
CC(C)(C)Cl,n/a,n/a,2.38,-1.507,2.482,n/a,n/a
CC1=C(C#N)C(C)(C)CCC1,0.8,229,2.7,n/a,-1.286,n/a,n/a

Data: OPERA 2.9 data sets, kmansouri/OPERA on GitHub.